# Screening results as filed in PubChem.
# TDP1 cell noCPT – qHTS for Inhibitors of human tyrosyl-DNA phosphodiesterase 1 (TDP1): qHTS in cells in absence of CPT | DT40 Tdp1-/- hTDP1 cells, no CPT, ATP luminescence, 48 h | Potency, µM (series often up to 46.2 µM), inactives show top-dose activity change, negative = growth inhibition, usual class: inhibitors | 420,000 tested, 15% active | AID 686978, 2013; further: potency means the concentration at half of the fitted maximal effect; on the % scale 0 is the no-effect control and ±100 the full control effect; nearly all actives have a fitted effect of over 55% in size
#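 Cells were dispensed at 400 per well, compounds added by pin tool, plates incubated ≥48 hr at 37 °C, then CellTiter-Glo added for 30 min at room temperature before luminescence reading. Line: DT40 Tdp1-/- complemented with hTDP1; camptothecin omitted.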
# miR-21 FLuc – raises the signal of a miR-21 reporter | HeLa miR-21 FLuc reporter, luciferase, 48 h | Potency, µM (highest dose often 38.3 µM), without a hit: at the top dose reporter change, positive = more light | 340,000 tested, under 10 active; active = well fitted rising curve with a large enough effect; inconclusive = small, poorly fitted or top-dose-only effect; inactive = no such curve, though single readings can be large or run the other way;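 note: % of control where 0% means no effect; miR-21 action dims this reporter so a rising signal means less miR-21 action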
#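 Compounds were titrated across several concentrations (up to approximately 40 uM) and incubated 48 hours with HeLa miR-21-FLuc reporter cells (miR-21 target sequence downstream of FLuc, endogenous miR-21). Readout was firefly luciferase luminescence after lytic detection reagent.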
# DT40 TDP1 CPT – DT40-hTDP1 cell growth loss with CPT | Potency, µM (highest dose often 46.2 µM), inactives show top-dose activity change, negative = growth inhibition, actives largely listed as inhibitors | chicken DT40 Tdp1-/-;hTDP1 cells + 20 nM CPT, ATP luminescence, 48 h | 420,000 tested, 12% active; further: potency means the concentration at half of the fitted maximal effect; on the % scale 0 is the no-effect control and ±100 the full control effect; nearly all actives have a fitted effect of over 55% in size
#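 Chicken DT40 Tdp1-/- cells stably complemented with human TDP1 were seeded at 400 cells/well in medium containing 20 nM camptothecin, exposed to pin-transferred compounds, and grown at 37 °C for at least 48 hr. Viability was read as ATP luminescence.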
# TDP1 inh – inhibitors of human tyrosyl-DNA phosphodiesterase TDP1 | recombinant TDP1, AlphaScreen DNA substrate cleavage | Potency, µM (series often up to 130 µM), without a hit: top-dose activity change, negative = inhibition, usual class: inhibitors | 350,000 tested, 0.28% active; further: potency means the concentration at half of the fitted maximal effect; on the % scale 0 is the no-effect control and ±100 the full control effect; nearly all actives have a fitted effect of over 40% in size
#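 Here, a 5' biotin and 3' phosphotyrosine-FITC DNA oligonucleotide reports Tdp1 activity: intact substrate bridges AlphaScreen beads, while cleavage leaves a 3' phosphate and drops signal. All incubations at room temperature.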
# uPA generation – blocks generation of uPA at the cell surface; AID 540303; 330,000 tested, 0.31% active; cell surface uPA generation assay, qHTS; Potency, µM (top dose mostly 38.3 µM), inactives show at the highest dose activity change, negative = inhibition, actives largely listed as inhibitors; active means well fitted inhibition curve with a large enough effect; inconclusive means small, poorly fitted or top-dose-only effect; inactive means no such curve, though single readings can be large or run the other way; tested in mouse RAW 264.7 cells; further: potency means the concentration at half of the fitted maximal effect; on the % scale 0 is the no-effect control and ±100 the full control effect; nearly all actives have a fitted effect of over 55% in size
# * marks the source's active call; other numbers are inactive results; ? = inconclusive; . = not tested or not shown; [ ] = dose if it differs, or a comment. Only some compounds are listed: those with a hit (about 16% of all), similar ones and a draw of the others. Unless noted, the call rests on the fitted dose curve; in most records, active means well fitted curve in the direction sought with a large enough effect; inconclusive means small, poorly fitted or top-dose-only effect, or another doubt; inactive means no such curve, though single readings can be large; an effect the other way counts as inactive or inconclusive.
# The opening two entries, ahead of the listing:
SMILES,TDP1 cell noCPT,miR-21 FLuc,DT40 TDP1 CPT,TDP1 inh,uPA generation
COc1ccc(N(CC(=O)Nc2ccc3c(c2)OCO3)S(=O)(=O)c2c(C)nn(C)c2C)cc1,-21%,-5%,-3%,0%,2%
CCn1cc(C(=O)NCc2ccccc2OC)c(=O)c2cc(S(=O)(=O)N(C)C)ccc21,?,-4%,?,0%,23%

# This part in full, from the start:
SMILES,TDP1 cell noCPT,miR-21 FLuc,DT40 TDP1 CPT,TDP1 inh,uPA generation
COc1ccc(N(CC(=O)Nc2ccc3c(c2)OCO3)S(=O)(=O)c2c(C)nn(C)c2C)cc1,-21%,-5%,-3%,0%,2%
CCn1cc(C(=O)NCc2ccccc2OC)c(=O)c2cc(S(=O)(=O)N(C)C)ccc21,?,-4%,?,0%,23%
OC(CNC1CCCCC1)COCCOc1ccc(Br)cc1 (centres undefined),23µM*,19%,13µM*,5%,2%
COc1cccc(OCCOCC(O)CN2CCN(Cc3ccc(Cl)cc3)CC2)c1 (centres undefined),?,20%,-26%,4%,0%
OC(CNC1CCCC1)COc1ccc(-c2ccccc2)cc1 (centres undefined),?,-20%,?,3%,2%
OC(COCCOc1ccc(Br)cc1)CN1CCN(Cc2ccccc2)CC1 (centres undefined),23µM*,?,?,5%,-4%
CCc1ccc(OCCOCC(O)CN2CCN(Cc3ccc(Cl)cc3)CC2)cc1 (centres undefined),?,?,18µM*,3%,-1%
Cc1nn(-c2ccccc2)c(Cl)c1CN(C(=O)CCl)c1ccc(Cl)cc1,6.5µM*,?,7.3µM*,1%,-12%
Cc1nn(-c2ccccc2)c(Cl)c1CN(C(=O)CCl)c1cccc2ccccc12,6.5µM*,?,5.8µM*,5%,-12%
N#Cc1c(Nc2ccccc2)[n+]([O-])c2ccc(Cl)cc2[n+]1[O-],?,.,6.5µM*,.,-5%
COc1ccccc1NC1=C(Cl)C(=O)OC1OC(=O)c1ccco1 (centres undefined),21µM*,2%,23µM*,3%,-3%
COc1cccc(NC2=C(Cl)C(=O)OC2OC(=O)c2ccco2)c1 (centres undefined),15µM*,5%,12µM*,3%,0%
Cc1ccccc1NC1=C(Cl)C(=O)OC1OC(=O)c1ccco1 (centres undefined),23µM*,17%,26µM*,6%,-19%
COc1ccc(C(=O)Nc2cccc(OC(=O)c3ccco3)c2)cc1,2%,-8%,6%,-10%,-3%
CC(C)n1nnnc1SCC(=O)c1c(N)n(C2CC2)c(=O)[nH]c1=O,-14%,.,10%,0%,-5%
CCn1nc(C)c(NC(=O)CCCSc2nc(-c3ccco3)cc(C(F)(F)F)n2)c1C,15µM*,25%,18µM*,3%,2%
O=C(CSc1nc(-c2ccco2)cc(C(F)(F)F)n1)Nc1ccc(C(=O)N2CCCCC2)cc1,6.5µM*,5%,7.3µM*,9%,-27%
Cc1ccc(O)c(NC(=O)CCSc2nc(-c3ccco3)cc(C(F)(F)F)n2)c1,18µM*,4%,?,-5%,.
CN(C)c1ccc(NC(=O)CCSc2nc(-c3ccco3)cc(C(F)(F)F)n2)cc1,18µM*,-30%,?,7%,.
Cc1ccc(NC(=O)CCn2cccn2)c(C)c1,-18%,-11%,12%,5%,.
COc1ccccc1N1CCN(C(=O)CSc2nc(-c3ccco3)cc(C(F)(F)F)n2)CC1,23µM*,3%,?,10%,-9%
Cc1cc(NC(=O)CSc2nc(-c3ccco3)cc(C(F)(F)F)n2)no1,0.73µM*,21%,0.58µM*,4%[56.1 µM],-10%
Cc1ccc(NC(=O)CSc2nc(-c3ccco3)cc(C(F)(F)F)n2)cc1,3.3µM*,24%,2.1µM*,-1%,.
Cc1cc(NC(=O)CCSc2nc(-c3ccco3)cc(C(F)(F)F)n2)no1,-14%,-1%,0%,0%,-4%
Cc1cc(C(F)(F)F)nn1CC(=O)N(C)C1CCCCC1,?,.,-7%,.,2%

# The listing continues.
SMILES,TDP1 cell noCPT,miR-21 FLuc,DT40 TDP1 CPT,TDP1 inh,uPA generation
CC(C)[C@@H]1NC(=O)c2cc([N+](=O)[O-])cc(F)c2NCCC[C@@H](C(N)=O)NC(=O)[C@H](CO)NC1=O,.,-1%,.,-3%,.
O=C(NCc1ccccc1)c1cnc(Cl)c(Cl)c1,-26%,-6%,-14%,.,-1%
Cc1cccc(C)c1NC(=O)C(C)c1ccc(-c2ccccc2)c(F)c1 (centres undefined),16µM*,7%,23µM*,0%,4%
O=C1C2C3c4ccccc4C(c4ccccc43)C2C(=O)N1Cc1cccnc1 (centres undefined),18µM*,-6%,?,2%,3%
NC(=O)CN1C(=O)C2C3c4ccccc4C(c4ccccc43)C2C1=O (centres undefined),-29%,-6%,-6%,2%,0%
O=C1C2C3C=CC(C3)C2C(=O)N1Cc1cccnc1 (centres undefined),-1%,0%,-2%,6%,1%
O=C1C2C3c4ccccc4C(c4ccccc43)C2C(=O)N1Cc1ccccn1 (centres undefined),23µM*,2%,23µM*,3%,-1%
COc1ccc(CCNC(=O)CC2Oc3ccc(Cl)cc3NC2=O)cc1OC (centres undefined),-3%,-9%,-7%,-10%,-4%
O=C(c1ccc(C23CC4CC(CC(C4)C2)C3)o1)N1CCOCC1,23µM*,-40%,?,1%,-9%
COc1cccc(C2C=C(c3ccccc3)Nc3c(C(=O)Nc4ccccc4)cnn32)c1OC (centres undefined),15µM*,-3%,16µM*,8%,.
COc1ccc(C2C=C(c3cccc(OC)c3)Nc3c(C(=O)Nc4ccccc4)cnn32)cc1 (centres undefined),?,-3%,?,3%,.
COc1cccc(C2=CC(c3ccccc3F)n3ncc(C(=O)Nc4ccc(C)cc4)c3N2)c1 (centres undefined),16µM*,19%,?,7%,.
Cc1ccc(NC(=O)c2cnn3c2NC(c2ccccc2)=CC3c2ccccc2)cc1 (centres undefined),?,2%,10µM*,7%,.
Cc1ccc(C2CN=NC23CCc2ccccc2C3=O)cc1 (centres undefined),26µM*,-43%,26µM*,2%,-5%
CCCCCN(C(=O)NC(=O)Nc1nncs1)S(C)(=O)=O,-22%,1%,-29%,5%,-1%
CC1(C)C(c2cccs2)=[N+]([O-])C2(CCCCC/C2=N\NC(N)=O)N1O (centres undefined),-11%,-9%,-2%,0%,6%
COc1ccccc1N1CCN(C(=O)c2cccc(C(=O)N3CCN(c4ccccc4OC)CC3)c2)CC1,?,23%,?,.,-1%
COc1ccccc1NC(=O)c1coc(=O)c(Br)c1,2.1µM*,-14%,0.73µM*,0%,-2%

# Four successive entries from above:
SMILES,TDP1 cell noCPT,miR-21 FLuc,DT40 TDP1 CPT,TDP1 inh,uPA generation
CCCCCN(C(=O)NC(=O)Nc1nncs1)S(C)(=O)=O,-22%,1%,-29%,5%,-1%
CC1(C)C(c2cccs2)=[N+]([O-])C2(CCCCC/C2=N\NC(N)=O)N1O (centres undefined),-11%,-9%,-2%,0%,6%
COc1ccccc1N1CCN(C(=O)c2cccc(C(=O)N3CCN(c4ccccc4OC)CC3)c2)CC1,?,23%,?,.,-1%
COc1ccccc1NC(=O)c1coc(=O)c(Br)c1,2.1µM*,-14%,0.73µM*,0%,-2%
